Measurements published in ChEMBL document CHEMBL1275556, “High prevalence of plasmid-mediated quinolone resistance genes qnr and aac(6')-Ib-cr in clinical isolates of Enterobacteriaceae from nine teaching hospitals in China” (2008).

What was measured:
[1] = test system: Klebsiella pneumoniae; conditions: GZ40T
[2] = test system: Citrobacter freundii; conditions: PU55T
[3] = test system: Escherichia coli; conditions: FJ3T
[4] = test system: Escherichia coli; conditions: J53

Measured: MIC

GENTAMICIN
0.5 µg/mL: [1] | [2] | [3] | [4]
